# Earlier results in patent publication US20100168443A1, “Ethoid-Containing Compounds, Methods for Preparing Ethoid-Containing Compounds, and Methods of Use” (UNIVERSITY OF VIRGINIA PATENT FOUNDATION, priority 2006, published 2010).
# Protein sequences, listed by entry. Tags and fused reporters are not part of them.
# UniProt P25103, whole entry: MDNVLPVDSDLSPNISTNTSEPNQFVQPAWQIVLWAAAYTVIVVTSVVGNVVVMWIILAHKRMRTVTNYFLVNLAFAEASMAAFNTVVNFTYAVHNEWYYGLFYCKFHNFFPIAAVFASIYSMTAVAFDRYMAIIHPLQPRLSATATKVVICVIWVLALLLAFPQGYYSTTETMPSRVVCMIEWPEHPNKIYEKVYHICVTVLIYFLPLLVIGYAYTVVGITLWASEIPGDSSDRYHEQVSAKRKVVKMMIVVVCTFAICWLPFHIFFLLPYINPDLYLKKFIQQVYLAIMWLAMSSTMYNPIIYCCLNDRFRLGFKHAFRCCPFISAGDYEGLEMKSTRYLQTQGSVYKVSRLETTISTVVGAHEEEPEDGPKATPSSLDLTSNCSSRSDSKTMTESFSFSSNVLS
# Target: Tachykinin NK1 HUMAN receptor (Homo sapiens, UniProt P25103)
# Conditions: radioligand; Human recombinant (CHO cells); tested as the radiolabelled form; cited from earlier work
structure (smiles),measurement,value
CC(C)Oc1cccc(CC(=O)N2CCC[C@](CC[N+]34CCC(c5ccccc5)(CC3)CC4)(c3ccc(Cl)c(Cl)c3)C2)c1,Kd,0.3 nM
